Compounds with a hit are over-represented: about 2.1% of the library has one in this group of screens.
Yeast UUG start = alters start codon recognition fidelity in yeast; S. cerevisiae UUG-firefly luciferase reporter, luminescence/redox ratio; activity score, % at 18.7 µM; actives 0.13% (n = 350,000); AID 602363;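 active = replicate mean at a twofold rise or more, about +100% in these data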;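 also: firefly luciferase made from a UUG start codon reports start codon fidelity; reporter light over untreated wells divided by growth signal over untreated wells; some hits fall short of that in this replicate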
PGC1a acetyl inh = inhibitors of PGC1a acetylation signal, primary screen, cell-based, U2OS, AlphaScreen, inhibitor mode; AlphaScreen anti-acetyl-lysine; with virally co-expressed GCN5 acetyltransferase; AID 651687, 2012; inhibition, % at 15.6 µM; 350,000 tested, 0.17% active;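 active means every replicate shows inhibition of at least 40%; inconclusive means mean inhibition at least 40% but some replicate below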;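 further: 0% = neutral control wells and 100% = positive control wells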
MITF TRPM1 HTS = activators of MITF-driven TRPM1 promoter reporter, primary screen, cell-based, SK-MEL-5, luciferase, single point. SK-MEL-5 TRPM1-promoter luciferase, 24 h; % of positive control, neutral wells = 0. 300,000 tested, 0.75% active. activation, % at 12.5 µM. AID 588334, 2011;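 active means mean activation of at least 80% with every replicate also reaching 80%; inconclusive means mean reaches 80% but some replicate falls short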;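 further: 0% = neutral control wells and 100% = parthenolide positive control wells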
MITF TRPM1 inh = inhibitors of MITF-dependent TRPM1 promoter reporter, primary screen, cell-based, SK-MEL-5, single point, luciferase; SK-MEL-5 TRPM1 promoter luciferase, 24 h; inhibition, % at 12.5 µM; 330,000 tested, 0.83% active;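 active means mean inhibition across replicates of 60% or more, whatever share of single replicates reaches that level; inconclusive means some that reach 60%, reason not given; inactive means mean inhibition across replicates below 60%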
Wnt act = Wnt/beta-catenin pathway activators, primary screen, cell-based, plate reader, single point. Wnt/beta-catenin reporter cell assay, activator. activation, % at 9.35 µM. 300,000 tested, 1.2% active; in the data active means activation above about 30%, passing the limit was not always enough; inconclusive means no clear call, values can overlap the other calls;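 further: 0% = neutral control wells and 100% = positive control wells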
miR-122 sensor = miR-122 Renilla sensor signal increase in Huh7, primary screen, miR-122 inhibitor project, cell-based, single point, plate reader | Huh7 miR-122 Renilla luciferase sensor, 48 h; neutral wells = 0, positive control = 100 | AID 602342, 2012 | 340,000 tested, 0.3% active | activation (reporter increase), % at 12.5 µM;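 active means mean replicate activation score at least 90 and every replicate individually at or above 90; inconclusive means only one of the two criteria met; inactive means neither criterion met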;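 further: higher luciferase means less miR-122 activity so hits act as miR-122 inhibitors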
Active calls of the source: *; u = inconclusive; x = no result; [ ] = another dose, or the depositor's remark.

SMILES	Yeast UUG start	PGC1a acetyl inh	MITF TRPM1 HTS	MITF TRPM1 inh	Wnt act	miR-122 sensor
Cc1noc(C)c1S(=O)(=O)Nc1cccc2c1O[C@H](CN(C)Cc1ccc(C(=O)Nc3ccccc3N)cc1)[C@H](C)CN([C@@H](C)CO)C2=O	-1.0	18.3	x	x	x	31.5[16.7 µM]
CCC(=O)Nc1ccc2c(c1)OC[C@H](C)N(Cc1cccc(F)c1)C[C@H](C)[C@@H](OC)CN(C)C2=O	-13.5	-5.7	x	x	x	-3.7[16.7 µM]
O=C(/C(=C/c1ccc(Cl)cc1)c1nc2ccccc2[nH]1)c1cccs1	x	1.1	-94.7	94.6*	x	2.3
O=C(/C(=C\c1ccccc1)c1nc2ccccc2[nH]1)c1ccc(Cl)cc1	x	x	-17.7	19.8	x	x
C[C@@H]1CN([C@@H](C)CO)C(=O)Cc2cc(NS(=O)(=O)c3cccs3)ccc2O[C@H]1CN(C)C	10.4	-0.4	x	x	x	-0.4[16.7 µM]
Cc1noc(C)c1NC(=O)Nc1ccc2c(c1)C(=O)N([C@@H](C)CO)C[C@H](C)[C@@H](CN(C)Cc1ccccc1)OCCCC[C@H](C)O2	15.6	14.1	x	x	x	17.7[16.7 µM]
Fc1ccccc1Cn1cc(C(=S)N2CCOCC2)c2ccccc21	-19.7	-4.4	7.7	-14.4	3.8	247.3*
COc1ccccc1C(=O)Nc1ccc2c(c1)C(=O)N(C)C[C@@H](OC)[C@H](C)CN(CC1CC1)[C@@H](C)CO2	10.1	-15.7	x	x	x	x
COc1cccc2c1OC1(CCN(C(C)C)CC1)N1N=C(c3cccnc3)CC21 (stereo not given)	1.5	19.3	x	-9.6	34.1*	-4.0
COc1cccc(-c2cnc3c(c2)C(=O)N([C@H](C)CO)C[C@H](C)[C@@H](CN(C)CC2CCCC2)O3)c1	x	-1.9	x	x	x	x
Cc1ccc(-c2cc(C(=O)NCCCn3ccnc3)c3ccccc3n2)s1	-6.3	-3.9	-13.7	13.5	-1.8	123.3*
CN(C)c1ccc(NC(=O)/C=C/c2ccccc2Cl)cc1	-17.2	-6.9	91.6*	-85.2	42.2*	-5.1
Cc1cc(NC(=O)/C=C/c2ccccc2Cl)no1	x	x	26.3	-24.6	x	x
CCN(CC)c1ccc(NC(=O)/C=C\c2ccccc2Cl)cc1	8.3	6.8	95.9*	-95.1	x	-3.7
O=C(/C=C/c1ccccc1Cl)NCCc1ccccc1	-5.2	0.0	87.2*	-90.5	-2.1	8.5
COCC#Cc1ccc2c(c1)O[C@H](CN(C)C(=O)Nc1ccccc1F)[C@H](C)CN([C@@H](C)CO)S2(=O)=O	31.0	-10.1	x	x	x	-5.7[16.7 µM]
NNC(=O)c1ccc2nc(-c3ccc(Br)cc3)cn2c1	x	12.4	92.8*	-90.8	15.8	1.9
Cc1ccc2nc(-c3ccc(NC(=O)CSc4nc(N)cc(=O)[nH]4)cc3)sc2c1	-6.4	-0.6	66.0	-71.2	56.4*	-1.2
Cc1ccc2nc(-c3ccc(NC(=O)CSc4nccc(=O)[nH]4)cc3)sc2c1	x	x	39.0	-33.2	x	x
Cc1ccc2nc(-c3ccc(NC(=S)NC(=O)CC(C)C)cc3)sc2c1	-21.7	-15.8	x	-37.4	51.8*	-3.1
CCN(CC)c1ccc(S(=O)(=O)Nc2cc(Cl)ccc2Cl)cc1NC(=S)NC(=O)C1CCCC1	-16.5	1.8	1.6	-0.4	x	284.6*
CN(C(=O)CSc1ncnc2sccc12)C1CCCCC1	-8.0	1.6	72.2	-74.0	46.9*	-5.9
CN(C(=O)CSc1ncnc2sccc12)C1CCS(=O)(=O)C1 (stereo not given)	0.5	0.5	-3.8	7.8	-1.7	x
COc1cccc(C#Cc2cnc3c(c2)C(=O)N([C@H](C)CO)C[C@H](C)[C@H](CN(C)C(=O)C2CC2)O3)c1	10.3	-4.6	x	x	x	4.9[16.7 µM]
O=C1C=C(c2cc3ccccc3s2)CCC1	-14.6	-58.2	106.4*	-98.1	25.6	-8.5
The list goes on.
SMILES	Yeast UUG start	PGC1a acetyl inh	MITF TRPM1 HTS	MITF TRPM1 inh	Wnt act	miR-122 sensor
Cc1ccc(S(=O)(=O)Nc2ccc3c(c2)C(=O)N([C@H](C)CO)C[C@@H](C)[C@H](CN(C)S(C)(=O)=O)O3)cc1	-6.9	-7.1	x	x	x	-3.9[16.7 µM]
Cc1ccc(COc2ccc3c(c2)OCO3)cc1	-1.2	-0.2	60.0	-66.4	33.4*	-8.9
CC(Sc1nc2ccccc2c(=O)n1C)C(=O)Nc1ccc2c(c1)OCCO2 (stereo not given)	-18.5	-3.2	-19.0	19.4	-4.8	-9.0
CCC(C(=O)Nc1ccc2c(c1)OCCO2)n1nnc2ccccc2c1=O (stereo not given)	x	12.3	88.2*	-90.2	14.6	-3.0
CC(C)Cc1nnc(NC(=O)Nc2ccccc2)s1	-8.7	-5.4	96.3*	-96.6	38.3*	-2.0
C[C@@H]1CCCCO[C@H](CN(C)Cc2ccc(Cl)c(Cl)c2)[C@H](C)CN([C@@H](C)CO)C(=O)c2cc(NS(=O)(=O)c3ccc(Cl)cc3)ccc2O1	13.4	-20.6	x	x	x	-2.6[16.7 µM]
CCOc1ccc(N/C=C/C(=O)c2ccc(OC)cc2)c([N+](=O)[O-])c1	-1.0	-7.3	98.2*	-96.2	5.9	-2.7
COc1ccc(CNC[C@@H](CCCCN(C)Cc2ccc(OC)cc2)N2C[C@H](c3ccccc3)N(CCc3ccc(Cl)c(Cl)c3)C(=O)C2=O)cc1	18.2	x	-95.5	96.3*	x	x
Cc1noc(C)c1COc1ccccc1C(=O)N(C)CC(=O)Nc1ccc(Cl)c(Cl)c1	-5.2	-60.8	23.9	-21.1	0.3	x
Cc1noc(C)c1COc1ccccc1C(=O)N(C)Cc1ccco1	-6.0	-6.4	-0.6	2.3	37.8*	2.9
CNC[C@@H]1Oc2ccc(NC(=O)Nc3cccc4ccccc34)cc2C(=O)N([C@H](C)CO)C[C@H]1C	5.8	-0.3	x	x	x	1.3[16.7 µM]
C[C@H](CO)N1C[C@H](C)[C@@H](CN(C)C(=O)c2ccncc2)Oc2cc(C#CC3(O)CCCC3)ccc2S1(=O)=O	-6.4	0.9	x	x	x	-1.9[16.7 µM]
Cc1ccc(Nc2ncccc2C(=O)O)cc1C	-19.4	-9.3	1.1	-6.4	6.1	0.7
Cc1ccc(Nc2ncccc2C(N)=O)cc1[N+](=O)[O-]	x	x	91.2*	-90.9	70.2*	x
Cc1cc(OCc2cc(C(=O)N(C)Cc3ccccn3)no2)cc(C)c1Cl	-7.6	-0.9	97.5*	-95.6	u	-3.5
CC(=O)c1ccc(OCc2cc(C(=O)N(C)Cc3ccccn3)no2)cc1	-7.7	-2.2	99.2*	-95.4	19.1	-4.3
CCC(=O)N[C@@H]1C=C[C@@H](CC(=O)NCc2cc(F)cc(F)c2)O[C@@H]1CO	1.5	-4.7	x	x	x	x
COc1ccc(C(=O)NNC(=O)c2ccccn2)cc1	x	x	-84.1	85.4*	5.8	x
N/C(=N\OC(=O)c1ccc(Cl)cc1)c1ccccn1	-91.6	0.8	9.2	-18.2	x	-2.6
CCOc1cc(C(=O)O/N=C(\N)c2ccccn2)cc(OCC)c1OCC	-8.3	x	-3.4	1.3	0.6	-1.5
CC(Oc1ccccc1)C(=O)NNC(=O)c1ccccn1 (stereo not given)	-15.8	-13.9	-3.3	3.1	-5.8	-4.3

Record cards (already shown). Order of screens: Yeast UUG start | PGC1a acetyl inh | MITF TRPM1 HTS | MITF TRPM1 inh | Wnt act | miR-122 sensor
Listed for `Cc1ccc(Nc2ncccc2C(=O)O)cc1C` : -19.4 | -9.3 | 1.1 | -6.4 | 6.1 | 0.7
Listed for `Cc1cc(OCc2cc(C(=O)N(C)Cc3ccccn3)no2)cc(C)c1Cl` : -7.6 | -0.9 | 97.5* | -95.6 | u | -3.5
Listed for `Cc1noc(C)c1COc1ccccc1C(=O)N(C)Cc1ccco1` : -6.0 | -6.4 | -0.6 | 2.3 | 37.8* | 2.9
Listed for `Cc1ccc(COc2ccc3c(c2)OCO3)cc1` : -1.2 | -0.2 | 60.0 | -66.4 | 33.4* | -8.9
Listed for `COc1ccc(CNC[C@@H](CCCCN(C)Cc2ccc(OC)cc2)N2C[C@H](c3ccccc3)N(CCc3ccc(Cl)c(Cl)c3)C(=O)C2=O)cc1` : 18.2 | x | -95.5 | 96.3* | x | x
